Reference: ChEMBL document CHEMBL4354825, “Design and Synthesis of Basic Selective Estrogen Receptor Degraders for Endocrine Therapy Resistant Breast Cancer” (J Med Chem, 2019)

Chains of the proteins cited; added tags and fusions are not shown.
UniProt P03372, whole entry: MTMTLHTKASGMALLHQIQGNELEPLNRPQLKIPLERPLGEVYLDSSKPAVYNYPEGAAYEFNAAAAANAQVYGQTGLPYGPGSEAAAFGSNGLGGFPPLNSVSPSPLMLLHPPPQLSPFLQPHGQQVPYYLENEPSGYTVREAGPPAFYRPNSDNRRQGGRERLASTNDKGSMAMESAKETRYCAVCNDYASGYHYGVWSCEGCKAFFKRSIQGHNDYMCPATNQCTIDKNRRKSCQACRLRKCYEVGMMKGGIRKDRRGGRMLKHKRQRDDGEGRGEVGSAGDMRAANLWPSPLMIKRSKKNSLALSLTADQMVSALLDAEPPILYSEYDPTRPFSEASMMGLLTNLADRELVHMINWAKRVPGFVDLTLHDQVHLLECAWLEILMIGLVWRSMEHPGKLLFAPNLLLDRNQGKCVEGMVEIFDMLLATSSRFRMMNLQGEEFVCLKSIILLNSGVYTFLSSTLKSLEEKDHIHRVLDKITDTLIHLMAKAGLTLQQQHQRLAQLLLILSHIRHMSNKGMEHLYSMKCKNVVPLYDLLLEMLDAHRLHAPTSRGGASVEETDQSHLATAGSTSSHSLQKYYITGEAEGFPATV

Legend:
Estrogen receptor = Estrogen receptor (Homo sapiens, UniProt P03372); experiment: Displacement of [3H]esterdiol from recombinant human full length ERalpha expressed in insect cells incubated for 45 to 90 mins by liquid scintillation counting method relative to control
Homo sapiens = species: Homo sapiens; experiment: Selectivity index, ratio of inhibition of ERbeta to inhibition of recombinant human full length ERalpha expressed in insect cells

RBA (Estrogen receptor) [%] | SMILES | Ratio (Homo sapiens)
91.8 | Cc1ccccc1C(=O)c1sc2cc(O)ccc2c1Oc1ccc(OC2CN(CCCF)C2)cc1 | < 4
38.1 | Cc1cc(F)cc(C)c1C(=O)c1sc2cc(O)ccc2c1Oc1ccc(OC2CN(C3CC3)C2)cc1 | < 4
32.6 | Cc1cc(F)cc(C)c1C(=O)c1sc2cc(O)ccc2c1Oc1ccc(OCCN2CC[C@@H](CF)C2)cc1 | < 4
27.8 | Cc1cc(F)cc(C)c1C(=O)c1sc2cc(O)ccc2c1Oc1ccc(OC2CN(CCCF)C2)cc1 | < 4

Continued, compound first:

SMILES | RBA (Estrogen receptor) [%] | Ratio (Homo sapiens)
Cc1cc(F)ccc1C(=O)c1sc2cc(O)ccc2c1Oc1ccc(OCCN2CC(CF)C2)cc1 | 46.5 | < 4
Cc1ccccc1C(=O)c1sc2cc(O)ccc2c1Oc1ccc(OCCN2CC(CF)C2)cc1 | 30.7 | < 4
O=C(c1ccc(F)cc1)c1sc2cc(O)ccc2c1Oc1ccc(OCCN2CC(CF)C2)cc1 | 9.15 | < 4
Cc1cc(F)cc(C)c1C(=O)c1sc2cc(O)ccc2c1Oc1ccc(OCCN2CC(CF)C2)cc1 | 59.6 | < 4
Cc1cc(O)ccc1C(=O)c1sc2cc(O)ccc2c1Oc1ccc(OCCN2CC(CF)C2)cc1 | 21.9 | < 4
O=C(c1ccc(O)cc1)c1sc2cc(O)ccc2c1Oc1ccc(OCCN2CC(CF)C2)cc1 | 57 | < 4
O=C(c1cccc(F)c1)c1sc2cc(O)ccc2c1Oc1ccc(OCCN2CC(CF)C2)cc1 |  | < 4
O=C(c1ccccc1)c1sc2cc(O)ccc2c1Oc1ccc(OCCN2CC(CF)C2)cc1 | 80.6 | < 4
Cc1ccc(C(=O)c2sc3cc(O)ccc3c2Oc2ccc(OCCN3CC(CF)C3)cc2)c(C)c1 | 120 | 
